This passage reports inhibition results from PubChem BioAssay AID1987 (The Scripps Research Institute Molecular Screening Center, 2009).

Sequences of proteins named here, by UniProt entry; tags and fusion partners are left off.
UniProt P53041, whole entry: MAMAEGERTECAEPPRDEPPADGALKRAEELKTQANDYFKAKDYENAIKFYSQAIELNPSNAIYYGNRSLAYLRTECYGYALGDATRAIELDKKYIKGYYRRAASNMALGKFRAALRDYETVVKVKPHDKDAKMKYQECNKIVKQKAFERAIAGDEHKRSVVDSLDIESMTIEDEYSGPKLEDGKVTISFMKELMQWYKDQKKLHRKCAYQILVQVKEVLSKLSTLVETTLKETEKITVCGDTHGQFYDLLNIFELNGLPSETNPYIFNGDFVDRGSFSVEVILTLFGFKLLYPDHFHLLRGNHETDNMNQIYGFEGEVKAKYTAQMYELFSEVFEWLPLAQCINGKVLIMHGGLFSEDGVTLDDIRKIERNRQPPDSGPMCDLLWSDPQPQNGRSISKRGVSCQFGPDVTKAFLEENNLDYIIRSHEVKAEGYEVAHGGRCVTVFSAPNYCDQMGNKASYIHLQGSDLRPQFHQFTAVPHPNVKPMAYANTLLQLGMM

The entries are a selection whose mix differs from that of the whole data set. The source made the active and inactive calls.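 The calls were made as follows: active = inhibition above the campaign's mean inhibition across all tested compounds plus 3 SD (cut at about 9.5% in these data); inactive = the rest.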

For this assay, the target named is Serine/threonine-protein phosphatase 5 (Homo sapiens) (UniProt P53041). Briefly: inhibition of human PP5 catalytic activity – biochemical, fluorescence, primary screen (AID 1987).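 Also: 0% = DMSO only and 100% = 100 µM cantharidin control.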 The conditions noted are these: purified PP5c, OMFP substrate fluorescence; at 6.7 µM; hits give high values.
For orientation: inhibition means the drop in the measured response relative to a control, in per cent. On to `COP1(=S)c2c(C)nn(CCC#N)c2N=C(c2ccc(F)cc2)N1C` (configuration not stated), for which the inhibition is inactive: 3.28%.

For `CCN(N=Nc1nonc1N)c1nonc1N`, the inhibition is inactive: 1.74%.
